Each structure is given as a SMILES string.

Chains of the proteins cited; added tags and fusions are not shown. Lines headed by an entry give the natural chain unless they say otherwise; changes in a name come on top.
UniProt Q9Y6L6: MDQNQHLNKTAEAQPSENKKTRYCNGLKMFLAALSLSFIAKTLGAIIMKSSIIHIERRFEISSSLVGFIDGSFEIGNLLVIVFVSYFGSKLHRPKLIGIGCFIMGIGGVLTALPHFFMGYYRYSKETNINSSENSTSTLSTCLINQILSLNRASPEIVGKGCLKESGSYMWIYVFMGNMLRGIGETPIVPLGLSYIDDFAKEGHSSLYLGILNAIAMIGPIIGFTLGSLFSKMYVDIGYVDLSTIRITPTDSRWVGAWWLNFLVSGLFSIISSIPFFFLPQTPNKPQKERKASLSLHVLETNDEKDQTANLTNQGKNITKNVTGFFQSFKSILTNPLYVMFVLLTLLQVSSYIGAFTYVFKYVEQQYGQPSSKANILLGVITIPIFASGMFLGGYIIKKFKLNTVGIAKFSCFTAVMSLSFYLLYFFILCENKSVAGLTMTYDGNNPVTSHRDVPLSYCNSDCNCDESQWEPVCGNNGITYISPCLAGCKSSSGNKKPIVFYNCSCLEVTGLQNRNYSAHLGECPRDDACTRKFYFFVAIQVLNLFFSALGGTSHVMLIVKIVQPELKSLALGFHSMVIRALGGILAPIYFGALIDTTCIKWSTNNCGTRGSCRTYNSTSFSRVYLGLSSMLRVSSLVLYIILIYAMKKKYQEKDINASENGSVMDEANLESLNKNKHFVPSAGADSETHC

For this assay, the target named is Solute carrier organic anion transporter family member 1B1 (Homo sapiens, UniProt Q9Y6L6).

As for `CC1(C)[C@@H](OC(=O)CCC(=O)O)CC[C@]2(C)[C@H]3C(=O)C=C4[C@@H]5C[C@@](C)(C(=O)O)CC[C@]5(C)CC[C@@]4(C)[C@]3(C)CC[C@@H]12` [CARBENOXOLONE SODIUM], the Ki amounted to 1.07 µM.

The Ki is the dissociation constant of the complex between target and ligand, obtained from inhibition or displacement. A higher Ki goes with weaker binding.

For the origin of these results see ChEMBL document CHEMBL3039007, “Structure-based identification of OATP1B1/3 inhibitors” (Mol Pharmacol, 2013).
